From ChEMBL document CHEMBL6078679, “Structure-Guided Discovery of Subtype Selective SIRT6 Inhibitors with a β-Carboline Skeleton for the Treatment of Breast Cancer” (J Med Chem, 2024)

The chains behind the UniProt entries cited, without tags or fusion partners.
UniProt Q8N6T7, whole entry: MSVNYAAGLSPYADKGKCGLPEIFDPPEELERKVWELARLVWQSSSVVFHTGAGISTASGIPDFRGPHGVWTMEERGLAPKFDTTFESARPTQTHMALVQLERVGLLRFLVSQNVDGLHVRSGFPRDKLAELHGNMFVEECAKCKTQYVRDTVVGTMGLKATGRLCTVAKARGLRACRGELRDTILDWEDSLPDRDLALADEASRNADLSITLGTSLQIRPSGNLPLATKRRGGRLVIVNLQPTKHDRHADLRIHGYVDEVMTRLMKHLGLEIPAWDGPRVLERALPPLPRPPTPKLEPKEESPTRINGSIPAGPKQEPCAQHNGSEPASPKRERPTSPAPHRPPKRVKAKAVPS

Experiments:
[1] = biological target: T1, NAD-dependent protein deacetylase sirtuin-3, mitochondrial (Homo sapiens) (UniProt Q9NTG7); test: Inhibition of full length N-terminal his-tagged SIRT3 (unknown origin) deacetylation activity expressed in Escherichia coli BL21 (DE3) using RHKK-Ac-AMC as substrate at 50 uM incubated for 2 hrs by BioTek microplate reader analysis relative to control
T1 sequence (whole entry): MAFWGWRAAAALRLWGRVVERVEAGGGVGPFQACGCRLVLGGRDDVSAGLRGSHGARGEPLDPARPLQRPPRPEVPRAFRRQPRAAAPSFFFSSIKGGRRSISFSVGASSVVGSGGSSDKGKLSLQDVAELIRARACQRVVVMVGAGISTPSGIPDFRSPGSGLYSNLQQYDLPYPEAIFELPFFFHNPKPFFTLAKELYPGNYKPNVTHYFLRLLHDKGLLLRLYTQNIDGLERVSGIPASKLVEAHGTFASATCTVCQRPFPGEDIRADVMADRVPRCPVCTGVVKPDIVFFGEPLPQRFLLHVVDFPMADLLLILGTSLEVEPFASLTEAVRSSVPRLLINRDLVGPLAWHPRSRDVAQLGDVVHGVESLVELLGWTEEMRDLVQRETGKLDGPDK

[2] = biological target: NAD-dependent protein deacylase sirtuin-6 (Homo sapiens) (UniProt Q8N6T7); test: Inhibition of SIRT6 in human MCF7 cells assessed as increase in H3K56ac acetylation level at 100 uM incubated for 48 hrs by Western blot analysis; format: cell-based

| Structure (SMILES) | inhibition [1] | inhibition [2] |
| --- | --- | --- |
| O=c1c(O)c(-c2ccc(O)c(O)c2)oc2cc(O)cc(O)c12 | 17% | – |
| O=C1c2c(O)cccc2Cc2cccc(O)c21 | 17% | – |
| O=C(O)C1OC(Oc2cc3oc(-c4ccccc4)cc(=O)c3c(O)c2O)C(O)C(O)C1O (stereo unspecified) | 17% | – |
| O=C(Nc1ccc(O)c(C(=O)O)c1)c1cccc(NC(=O)c2ccco2)c1 | – | inactive |
| O=C(NCc1ccccn1)c1cc2c(cn1)[nH]c1ccccc12 | 60% | – |
| O=C1c2cccc(O)c2C(=O)c2c(O)cccc21 | 17% | – |

Calls of active or inactive are those of the source. No cut-off for these calls is given here.
